The source of these data is patent US8895564B2, “Biguanide derivative compound” (Nihon University, priority 2010, dated 2014).

Protein sequences, listed by entry. Tags and fused reporters are not part of them. Residues count along the entry.
UniProt Q00959, 23-1464: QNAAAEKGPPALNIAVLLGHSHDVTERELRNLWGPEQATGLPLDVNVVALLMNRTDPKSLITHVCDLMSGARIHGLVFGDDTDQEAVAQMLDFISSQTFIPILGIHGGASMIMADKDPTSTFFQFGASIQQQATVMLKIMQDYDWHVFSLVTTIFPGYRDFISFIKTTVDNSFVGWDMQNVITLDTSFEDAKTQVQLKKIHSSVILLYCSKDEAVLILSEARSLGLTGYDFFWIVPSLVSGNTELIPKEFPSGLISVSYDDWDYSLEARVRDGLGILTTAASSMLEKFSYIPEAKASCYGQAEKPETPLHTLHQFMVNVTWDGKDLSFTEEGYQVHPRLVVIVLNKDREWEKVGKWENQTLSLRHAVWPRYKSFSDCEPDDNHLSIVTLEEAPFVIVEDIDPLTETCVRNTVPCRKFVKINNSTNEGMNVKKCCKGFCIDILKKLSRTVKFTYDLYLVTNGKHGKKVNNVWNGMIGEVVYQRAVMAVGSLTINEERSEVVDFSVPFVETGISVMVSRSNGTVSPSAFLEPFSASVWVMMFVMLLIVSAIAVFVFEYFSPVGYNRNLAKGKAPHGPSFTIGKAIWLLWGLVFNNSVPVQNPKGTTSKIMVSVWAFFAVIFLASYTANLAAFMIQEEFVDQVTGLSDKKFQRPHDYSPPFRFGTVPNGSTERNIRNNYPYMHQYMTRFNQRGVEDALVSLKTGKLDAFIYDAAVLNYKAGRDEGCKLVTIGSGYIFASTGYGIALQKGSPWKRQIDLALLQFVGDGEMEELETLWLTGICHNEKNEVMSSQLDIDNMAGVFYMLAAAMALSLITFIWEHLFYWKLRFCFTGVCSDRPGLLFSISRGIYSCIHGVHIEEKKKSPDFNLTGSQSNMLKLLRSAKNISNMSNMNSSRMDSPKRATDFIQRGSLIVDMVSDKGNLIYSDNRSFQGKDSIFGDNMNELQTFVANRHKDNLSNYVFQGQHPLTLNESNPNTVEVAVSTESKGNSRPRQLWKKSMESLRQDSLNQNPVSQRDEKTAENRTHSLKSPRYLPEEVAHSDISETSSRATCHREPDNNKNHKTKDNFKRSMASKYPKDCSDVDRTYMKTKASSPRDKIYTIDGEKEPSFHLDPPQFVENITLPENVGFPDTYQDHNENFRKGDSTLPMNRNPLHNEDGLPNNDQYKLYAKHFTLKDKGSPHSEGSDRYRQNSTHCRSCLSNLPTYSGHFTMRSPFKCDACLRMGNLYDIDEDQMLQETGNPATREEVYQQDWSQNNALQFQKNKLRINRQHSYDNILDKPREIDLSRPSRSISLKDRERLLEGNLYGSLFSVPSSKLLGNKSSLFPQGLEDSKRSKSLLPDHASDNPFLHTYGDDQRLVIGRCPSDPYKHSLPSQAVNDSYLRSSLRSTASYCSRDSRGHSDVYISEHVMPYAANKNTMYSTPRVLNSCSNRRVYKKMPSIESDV

A word on the IC50: it is the concentration that gives 50% inhibition. Low readings indicate greater potency in that assay, high ones weaker potency in that assay.

The target in this assay is NR1/NR2A (Rattus norvegicus, UniProt P35439+Q00959). The assay is described as follows: Inhibition of NMDA receptor NR1/NR2A activity in Xenopus laevis oocytes, two-electrode voltage clamp method. On the technique in general: In two-electrode clamp one electrode senses voltage and the other passes current.

`CC12CC3CC(C)(C1)CC(N)(C3)C2` [Memantine, reference compound] registered a half-inhibitory concentration (IC50) of 880 nM.
